ChEMBL document CHEMBL1135768, “Design, synthesis, and SAR of tachykinin antagonists: modulation of balance in NK(1)/NK(2) receptor antagonist activity” (J Med Chem, 2002)

Tested on: Substance-P receptor (Oryctolagus cuniculus)
Test: Tested for the binding affinity towards tachykinin receptor 1 (NK1) in rabbit pulmonary artery tissue

pKB | Compound
8.43 | CN(C[C@@H](CCN1CCC(c2ccccc2[S+](C)[O-])CC1)c1ccc(Cl)c(Cl)c1)C(=O)c1cc(C#N)cc2ccccc12 (mixture of isomers)
8.98 | CN(C[C@@H](CCN1CCC(c2ccccc2[S@+](C)[O-])CC1)c1ccc(Cl)c(Cl)c1)C(=O)c1cc(C#N)cc2ccccc12
8.2 | COc1ccc(C2CCN(CC[C@H](CN(C)C(=O)c3cc(C#N)cc4ccccc34)c3ccc(Cl)c(Cl)c3)CC2)c([S@+](C)[O-])c1
